PMC10977697 (PLOS ONE, 2024)

What was measured:
HtrA1 [1] = molecular target: T1, HtrA1 (human, UniProt Q92743 23-480, biotin on lysines (Sulfo-NHS-LC-biotin) for panning and SPR); experiment: SPR; conditions: both partners purified
T1 construct: also called HtrA1 FL; human full-length HtrA1

HtrA1 [2] = molecular target: T1, HtrA1; experiment: cell-based or functional assay
HtrA1 [3] = molecular target: T1, HtrA1; experiment: ELISA; conditions: one partner purified

Binder | Kd (HtrA1 [1]) | inhibition of HtrA1 enzyme activity (substrate H2-OPT), 20 μM DCP (HtrA1 [2]) | s/n ratio (HtrA1 [3])
AFDCLGQCGRCDFHKLQCVRQIVWRVINLSHYCNSSCTR (designed binder, AVR9 scaffold; source: synthetic peptide, folded in vitro) [HtrA1_AVR62] | > 15 µM | > 75% | –
WIPCISAALGCSCKNKVCYIFSKHLCGESCV (designed binder) [HtrA1_CirA65] | – | > 75% | –
WIPCISAALGCSCKNKVCYFLYQICGESCV (designed binder) [HtrA1_CirA38] | – | > 75% | –
GCHRPWWQLWGLCKQDSDCLAGCVCGPNGFCG (designed binder) [HtrA1_EET76] | – | > 50% | –
GPTQSFWGWCGGIGYVGGRYCSGTTCQRPDAHWSQCLPGAS (designed binder) [HtrA1_CBDamy86 displayed on M13 phage] | – | – | 22.8
AFDCLGQCGRCDFHKLQCVMVYFIHMTKPYCNSSCTR (designed binder, AVR9 scaffold; source: synthetic peptide, folded in vitro) [HtrA1_AVR61] | > 20 µM | – | –
GPTQSFWGWCGGIGYVGGRYCSGTTCQRPDAHWSQCLPGAS (designed binder) [HtrA1_CBDamy86] | 158 µM | – | –
AFDCLGQCGRCDFHKLQCVMVYFIHMTKPYCNSSCTR (designed binder, AVR9 scaffold; source: M13 phage from E. coli, culture supernatant) [HtrA1_AVR61 displayed on M13 phage] | – | – | 24.4
AFDCLGQCGRCDFHKLQCVRQIVWRVINLSHYCNSSCTR (designed binder, AVR9 scaffold; source: M13 phage from E. coli, culture supernatant) [HtrA1_AVR62 displayed on M13 phage] | – | – | 19.5
